# Results reported in patent publication US4451448A, “1-Substituted tricyclic quinazolinones useful as tranquilizers” (Sandoz, Inc., priority 1982, dated 1984).
# Test system: isolated calf brain benzodiazepine receptors
# Experiment: Flunitrazepam Receptor Binding Assay (FBA TEST No. 1), displacement of 3H-flunitrazepam
# Conditions: compound at final concentration of 1×10^-6 M; calf caudate tissue; 1 µM
smiles,measurement,value
"CNC1=Nc2ccc(Cl)cc2C(c2ccccc2)=[N+]([O-])C1 [chlordiazepoxide, reference compound]",percent specifically bound 3H-flunitrazepam compared to control,44 % of control
